Literature values in patent US20080287669A1, “METHODS AND COMPOSITIONS FOR IDENTIFYING COMPOUNDS USEFUL IN NUCLEIC ACID PURIFICATION” (priority 2007, published 2008).

Conditions: Table 1, soluble organic solvents

## hexylene glycol
  Dielectric Constant (DC): 23.4
